Source: US20090280109A1, “ILT3 and ILT4-related compositions and methods” (The Trustees of Columbia University in the City of New York, priority 2001, published 2009)

Tests used:
[1] = system: CD4+ TH cells; details: previously shown (refs 12, 15); cited from earlier work
[2] = system: CD4+ TH cells; test: Three-day proliferation assay ([3H]thymidine incorporation); assay type: cell-based, human; details: for CD4+ TH responsiveness to CD8+CD28− TS cell-treated APCs: APCs preincubated 18 h with TS cells, rIL-2 10 U/ml
Description: Before testing, responding T cells were depleted of natural killer cells with the use of goat anti-mouse IgG magnetic beads (Dynal, Lake Success, N.Y.) coupled with mAbs to CD16 and CD56 (Becton Dickinson, San Jose, Calif.). CD4^+ and CD8^+ T cells were obtained from natural killer and CD14^+-depleted cell suspensions by negative selection with the use of CD8^+ and CD4^+ magnetic beads, respectively (Dynal). CD8^+ T cell suspensions were then twice depleted of CD28^+ T cells with the use of goat anti-mouse IgG beads (Dynal) coupled with monoclonal anti-CD28 (Becton Dickinson). The purity of the CD4^+ and CD8^+ CD28^− T cell subsets was monitored by cytofluorographic analysis. All CD4^+ and CD8^+CD28^− T cell suspensions that were used in functional assays contained <2% CD16^+CD56^+ cells. CD4^+ T cells were >98% positive for the CD4 and CD45RO markers. The population of CD8^+CD28^− T cells contained >98% cells that were positive for CD8 and <2% CD28^hi cells.
Proliferation assays were done after two or three cycles of stimulation of human T cells with allogeneic CD2-depleted APCs or KG1 cells. Responding CD4^+ T cells (1×10^5 cells/well) were stimulated in triplicate with irradiated DCs (2.5×10^4 cells/well), CD14^+ monocytes (1×10^5) or KG1 cells (5×10^4) in the absence or presence of human CD8^+CD28^− T cells (1×10^5 cells/well). Cultures were set up in 96-well trays in a total volume of 0.2 ml. In some experiments, monoclonal anti-ILT3, a mixture of mAbs to ILT4 and HLA class I (W6/32, ATCC) or exogenous rIL-2 (10 U/ml) were added at the start of incubation. After 48 h of incubation, the cultures were pulsed with [^3H]thymidine and collected 18 h later. [^3H]thymidine incorporation was determined by scintillation spectrometry.
To determine the effect of CD8^+CD28^− TS cells on CD4^+ TH cell alloreactivity, 12 different TCLs were generated. […]

## rIL-2: Recombinant IL-2 (Boehringer Mannheim), 10 U/ml
[1]
  CD4+ TH cell proliferation in the presence of CD8+CD28− TS cells: restored
[2]
  CD4+ TH responsiveness to CD8+CD28− TS cell-treated APCs: restored
[2]; listed as rIL2
  CD4+ TH responsiveness to CD8+CD28− TS cell-treated APCs: restores
[2]; ILT3- or ILT4-transduced KG1 cells as stimulators
  CD4+ TH cell proliferation in response to KG1.ILT3 or KG1.ILT4 cells: restored
